Source: patent publication US11090305B2, “Methods and compositions to reduce oxidative stress” (University of Massachusetts, priority 2009, dated 2021)

System: ApoE^−/−-derived HSCs
Assay: HSC transplantation into lethally irradiated WT recipients
Assay type: in vivo, mouse
Details: 12 weeks after transplant; ApoE^−/− donors pretreated 4 weeks
Method: HSC were purified from freshly harvested bone marrow mononuclear cells as c-Kit^+Sca-1^+CD90.1^lowLin^− by FACS sorting. Recipient mice were C57BL/6 (WT) on standard chow. Recipients underwent lethal irradiation (1100 Rads delivered in 2 doses 3 hr apart). Immediately after the 2nd irradiation, recipients were anesthetized (2% isoflurane) and 10^6 HSC/0.1 ml sterile PBS were transplanted via retro-orbital injection. Mice were followed for 12 weeks before study or administration of AOM.
It was next determined the oxidant status of HSCs transplanted into WT mice. To this end, lethally irradiated WT mice were transplanted with HSCs from WT or ApoE^−/− mice, or with HSCs harvested from ApoE^−/− mice pretreated with NAC for 4 weeks. […] FIGS. 53A-53E show HSCs harvested from WT recipient mice 12 weeks after transplantation with ApoE^−/−-derived HSCs retain evidence of oxidant stress. […] (B,C) The percentage of HSC and T-cell progenitor cells in total bone marrow cells were higher in the ApoE^−/−→WT transplant group than in the ApoE^−/−+NAC→WT or the WT→WT transplant groups. (D,E) The percentage of γδT cells and NKT cells in the thymus and peripheral blood were less in the ApoE^−/−→WT transplant group than in the ApoE^−/−+NAC→WT or the WT→WT transplant groups. […]

Question: CC(=O)N[C@@H](CS)C(=O)O [NAC, N-acetylcysteine] was tested. Which “percentage of HSC with DCF-DA staining >isotype in WT recipients” value did it give?
Answer: Its value is “higher in the ApoE^−/−≥WT transplant group than in the ApoE^−/−+NAC→WT or the WT→WT transplant groups”.
